System: PC-3 cells
Assay: Apoptosis induction in PC-3 cells (T1/2, time for 50% apoptotic death; cell viability / Cell Death Detection ELISA)
Details: for T½ (h) 50 μM: time required for eliciting 50% apoptotic death, Table 2; for T1/2 at 50 μM: PC-3 cells

| SMILES | T½ (h) 50 μM [h] | T1/2 at 50 μM [h] |
| --- | --- | --- |
| NS(=O)(=O)c1ccc(-n2nc(C(F)(F)F)cc2-c2ccc(O)cc2)cc1 | >100 | – |
| NS(=O)(=O)c1ccc(-n2nc(C(F)(F)F)cc2-c2ccc(Cl)cc2)cc1 [1a] | 3 | – |
| NS(=O)(=O)c1ccc(-n2nc(C(F)(F)F)cc2-c2ccc(Cl)c(Cl)c2)cc1 | 1.5 | 1.5 |
| NS(=O)(=O)c1ccc(-n2nc(C(F)(F)F)cc2-c2cc(Cl)ccc2Cl)cc1 [Example 5] | 3 | – |
| NS(=O)(=O)c1ccc(-n2nc(C(F)(F)F)cc2-c2ccc([N+](=O)[O-])cc2)cc1 | >100 | – |
| NS(=O)(=O)c1ccc(-n2nc(C(F)(F)F)cc2-c2ccc(F)cc2)cc1 | >100 | – |
| NS(=O)(=O)c1ccc(-n2nc(C(F)(F)F)cc2-c2ccc(Cl)cc2Cl)cc1 [Example 12] | 2 | 2 |
| NS(=O)(=O)c1ccc(-n2nc(C(F)(F)F)cc2C2=CCCCC2)cc1 | >100 | – |
| Nc1ccc(-c2cc(C(F)(F)F)nn2-c2ccc(S(N)(=O)=O)cc2)cc1 | >100 | – |
| COc1ccc(-c2cc(C(F)(F)F)nn2-c2ccc(S(N)(=O)=O)cc2)cc1 | >100 | – |
| Cc1ccc(-c2cc(C(F)(F)F)nn2-c2ccc(S(N)(=O)=O)cc2)c(C)c1 [Example 9] | 2 | – |
| NS(=O)(=O)c1ccc(-n2nc(C(F)(F)F)cc2-c2ccccc2Cl)cc1 [Example 13] | 4 | – |
| NS(=O)(=O)c1ccc(-n2nc(C(F)(F)F)cc2-c2ccc(C(F)(F)F)cc2)cc1 | 3 | – |

Reference: patent publication US20030236294A1, “Compounds and methods for inducing apoptosis in proliferating cells” (priority 2002, published 2003)
